The test concerns the target T1, FPR1 (Homo sapiens, UniProt P21462).
T1 sequence (P21462 1-350): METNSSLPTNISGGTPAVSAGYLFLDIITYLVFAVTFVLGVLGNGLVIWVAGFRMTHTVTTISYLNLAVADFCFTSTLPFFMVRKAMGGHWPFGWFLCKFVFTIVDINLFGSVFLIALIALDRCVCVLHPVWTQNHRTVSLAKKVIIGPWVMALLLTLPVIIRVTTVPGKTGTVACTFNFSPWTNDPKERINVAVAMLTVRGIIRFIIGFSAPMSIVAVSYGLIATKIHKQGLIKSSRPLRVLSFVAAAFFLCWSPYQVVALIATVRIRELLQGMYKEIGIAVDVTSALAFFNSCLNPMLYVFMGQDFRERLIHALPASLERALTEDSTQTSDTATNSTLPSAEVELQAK
The test is described as follows: FPR1 receptor internalization in GFP-FPR1 HEK293T cells. The class given is cell-based.

Where two headings read alike, the source gives them in different places.

With “Formylmethionyl-leucyl-phenylalanine [fMLF]”, the “FPR1 internalization / signaling” value is “bind and induce internalization the receptor”. Further, for the setting “listed as FMLP”, the “FPR1 internalization / signaling” value was “internalized”.

(Values after paper PMC8744071 (ACS infectious diseases, 2021).)
